Our source for the Kd values is US6610744B2, “Methods of treatment with compounds having RARα receptor specific or selective activity” (Allergan, Inc., priority 1995, dated 2003).

Protein sequences, listed by entry. Tags and fused reporters are not part of them.
UniProt P10276, whole entry, species assumed: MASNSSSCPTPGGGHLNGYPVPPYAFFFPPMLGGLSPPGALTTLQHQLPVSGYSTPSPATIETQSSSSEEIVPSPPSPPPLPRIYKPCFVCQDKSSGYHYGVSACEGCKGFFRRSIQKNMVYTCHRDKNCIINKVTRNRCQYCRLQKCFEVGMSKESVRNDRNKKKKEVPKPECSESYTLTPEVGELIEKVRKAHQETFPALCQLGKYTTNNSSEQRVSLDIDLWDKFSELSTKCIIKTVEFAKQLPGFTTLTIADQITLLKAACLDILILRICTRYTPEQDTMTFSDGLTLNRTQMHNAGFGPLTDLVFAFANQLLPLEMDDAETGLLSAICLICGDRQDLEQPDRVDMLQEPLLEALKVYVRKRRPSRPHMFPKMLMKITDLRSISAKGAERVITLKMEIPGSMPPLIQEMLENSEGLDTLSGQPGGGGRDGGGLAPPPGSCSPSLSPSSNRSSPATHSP
UniProt P13631, whole entry, species assumed: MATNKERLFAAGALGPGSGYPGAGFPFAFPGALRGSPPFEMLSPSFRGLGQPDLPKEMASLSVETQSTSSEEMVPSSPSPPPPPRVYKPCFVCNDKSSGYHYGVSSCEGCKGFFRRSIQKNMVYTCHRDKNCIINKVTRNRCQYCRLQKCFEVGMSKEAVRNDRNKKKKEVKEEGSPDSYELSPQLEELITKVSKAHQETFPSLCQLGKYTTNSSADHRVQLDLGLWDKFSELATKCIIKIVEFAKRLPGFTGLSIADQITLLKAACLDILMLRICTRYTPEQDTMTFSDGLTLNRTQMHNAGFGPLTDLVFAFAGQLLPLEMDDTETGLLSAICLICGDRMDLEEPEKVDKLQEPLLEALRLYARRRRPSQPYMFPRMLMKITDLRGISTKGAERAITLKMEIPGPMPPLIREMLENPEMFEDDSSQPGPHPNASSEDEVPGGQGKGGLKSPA
UniProt P10826, whole entry, species assumed: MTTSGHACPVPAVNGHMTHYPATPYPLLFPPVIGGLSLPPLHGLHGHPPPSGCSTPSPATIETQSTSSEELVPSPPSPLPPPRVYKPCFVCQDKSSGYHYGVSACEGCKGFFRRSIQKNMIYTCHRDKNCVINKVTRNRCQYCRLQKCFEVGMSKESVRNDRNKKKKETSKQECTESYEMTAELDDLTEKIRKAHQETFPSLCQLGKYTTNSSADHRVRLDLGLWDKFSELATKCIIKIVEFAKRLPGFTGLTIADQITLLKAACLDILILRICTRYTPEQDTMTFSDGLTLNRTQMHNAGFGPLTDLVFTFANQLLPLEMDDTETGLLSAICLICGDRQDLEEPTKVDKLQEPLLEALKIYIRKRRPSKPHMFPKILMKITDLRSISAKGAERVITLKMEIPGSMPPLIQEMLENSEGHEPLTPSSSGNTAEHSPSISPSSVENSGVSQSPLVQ

The target in test [1] is T1, RARα (Homo sapiens, UniProt P10276).
T1 construct: made in house; host or cells: Baculovirus expression (insect cell extract)
The test can be described thus: Ligand binding assay, RARα. As to the method: (§1) All binding assays were performed in a similar fashion. All six receptor types were derived from the expressed receptor type (RARα, β, Γ and RXRα, β, Γ) expressed in Baculovirus. Stock solutions of all compounds were prepared as 10 mM ethanol solutions and serial dilutions carried out into 1:1 DMSO; ethanol. Assay buffers consisted of the following for all six receptor assays: 8% glycerol, 120 mM KCl 8 mM Tris, 5 mM CHAPS 4 mM DTT and 0.24 mM PMSF, pH-7.4@ room temperature.
(§2) All receptor binding assays were performed in the same manner. The final assay volume was 250 μl and contained from 10-40 μg of extract protein depending on receptor being assayed along with 5 nM of [^3H] all-trans retinoic acid or 10 nM [^3H] 9-cis retinoic acid and varying concentrations of competing ligand at concentrations that ranged from 0-10^−5 M. The assays were formatted for a 96 well minitube system. Incubations were carried out at 4° C. until equilibrium was achieved. […] The amount of receptor-ligand complex was determined by liquid scintillation counting of hydroxyapitite pellet.
(§3) After correcting for non-specific binding, IC50 values were determined. […] The IC50 value was determined graphically from a loglogit plot of the data. The […] were determined by application of the Cheng-Prussof equation to the IC50 values, the labeled ligand concentration and the Kd of the labeled ligand. […]

Test [2] concerns the target T2, RARΓ (Homo sapiens, UniProt P13631).
T2 construct: made in house; host or cells: Baculovirus expression (insect cell extract)
In words: Ligand binding assay, RARΓ. How it is done: as §1, §2, §3

The target of test [3] is T3, RARβ (Homo sapiens, UniProt P10826).
T3 construct: made in house; host or cells: Baculovirus expression (insect cell extract)
The test can be described thus: Ligand binding assay, RARβ. How it is done: as §1, §2, §3

As a reminder, the Kd is a measure of binding affinity in units of concentration.

On to “2-Fluoro-4-[(3′,5′-di-t-butyl)phenylcarbamoyl]benzoic acid [Compound 46]”, for which the values for the Kd in test [1], in test [2] and in test [3] were 26 nM, over 1000 nM and over 1000 nM, respectively.
